Measurements reported in article PMC11428815, “Characterization of Novel SARM1 Inhibitors for the Treatment of Chemotherapy-Induced Peripheral Neuropathy” (Biomedicines, 2024).

Amino acid sequences for entries named in this document (tags omitted). Residues count along the entry.
UniProt Q6SZW1, 28-724 limits assumed: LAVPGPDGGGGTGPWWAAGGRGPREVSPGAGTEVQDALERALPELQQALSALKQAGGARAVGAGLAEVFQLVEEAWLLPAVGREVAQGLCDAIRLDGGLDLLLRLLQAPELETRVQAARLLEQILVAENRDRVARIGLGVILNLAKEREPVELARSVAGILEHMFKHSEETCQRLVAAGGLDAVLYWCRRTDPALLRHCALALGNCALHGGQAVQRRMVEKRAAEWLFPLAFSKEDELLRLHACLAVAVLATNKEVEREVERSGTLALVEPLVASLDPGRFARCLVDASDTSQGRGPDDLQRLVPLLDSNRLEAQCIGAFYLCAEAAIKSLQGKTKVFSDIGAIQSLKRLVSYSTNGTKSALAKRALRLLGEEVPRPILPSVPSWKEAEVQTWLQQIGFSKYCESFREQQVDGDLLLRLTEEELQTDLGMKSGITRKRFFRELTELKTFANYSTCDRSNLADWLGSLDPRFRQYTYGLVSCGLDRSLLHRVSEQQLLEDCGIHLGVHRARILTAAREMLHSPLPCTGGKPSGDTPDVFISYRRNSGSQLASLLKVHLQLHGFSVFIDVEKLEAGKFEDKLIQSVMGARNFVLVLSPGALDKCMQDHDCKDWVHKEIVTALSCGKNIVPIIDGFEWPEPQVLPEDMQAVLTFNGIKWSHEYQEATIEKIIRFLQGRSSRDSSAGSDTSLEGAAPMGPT
UniProt P28907, whole entry: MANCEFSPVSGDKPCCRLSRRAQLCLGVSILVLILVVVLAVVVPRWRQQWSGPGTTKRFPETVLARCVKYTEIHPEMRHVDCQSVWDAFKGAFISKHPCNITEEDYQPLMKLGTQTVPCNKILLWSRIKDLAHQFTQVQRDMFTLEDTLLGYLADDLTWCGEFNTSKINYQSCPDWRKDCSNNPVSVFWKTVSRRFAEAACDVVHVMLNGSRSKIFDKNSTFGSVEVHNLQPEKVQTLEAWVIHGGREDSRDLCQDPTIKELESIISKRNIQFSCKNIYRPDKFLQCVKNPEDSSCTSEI

Assays:
hSARM1 28–724 = hSARM1 28–724 (Homo sapiens, UniProt Q6SZW1); test: PC6 fluorescence assay of SARM1 NADase (hydrolase) activity; conditions: read-out: IC50 (PC6 assay, SARM1 hydrolase); recombinant hSARM1 28–724 pre-incubated with NMN
CD38 = CD38 (Homo sapiens, UniProt P28907); test: PC6 in vitro assay, enzymatic inhibition of CD38; assay type: biochemical; conditions: for IC50: read-out: IC50 (enzymatic inhibition of CD38)
[1] = system: SARM1 TIR domain (DmrB–TIR); test: DmrB–TIR dimerization (AP20187)-induced cell death in 293T cells; conditions: 24 h after AP20187 addition

| Compound | IC50 (hSARM1 28–724) [nM] | inhibitory effect on the enzymatic activity of CD38 (CD38; in words) | IC50 (CD38) [nM] | prevention of DmrB–TIR-dependent cell death (cell viability) [1] |
| --- | --- | --- | --- | --- |
| N#Cc1c(F)cc(CCC(=O)Nc2[nH]nc3c2CCOc2cnccc2-3)cc1F | 33.6 |  |  |  |
| COCCOC1CCC(Nc2cc(=O)n(C)c3ccc(-c4cncs4)cc23)CC1 (stereo not drawn) |  | potent inhibition |  |  |
| O=C(NCc1ccc(Cl)cc1)c1cc(P2(=O)CCCCC2)cc2c(-c3ccncc3)n[nH]c12 | 56.8 |  | > 10000 |  |
| S=C(NCc1ccc(Cl)cc1)Nc1cnn(-c2ccncc2)c1 | 21.4 |  | > 10000 |  |
| CP(C)(=O)c1cc(C(=O)NCc2ccc(Cl)cc2)c2[nH]nc(-c3ccncc3)c2c1 | 56.3 |  | > 10000 | preserved cell viability |
